The text below walks through data of patent US8003632B2, “Cholinesterase inhibitors for treating inflammation” (priority 2004, dated 2011).

The test has as its system murine model of lethal endotoxemia. It is filed as in vivo, mice. Conditions: 14 days after endotoxin; 0.2 mg/kg i.p. 30 minutes before endotoxin; vehicle about 5%.

On to `CNC(=O)Oc1ccc2c(c1)[C@]1(C)CCN(C)[C@@H]1N2C` [Physostigmine], for which the mice survived result is reported as “about 80%”.
